26 molecules from PubChem BioAssay AID588674 (Broad Institute, 2011) can be followed below.

Only a part is listed here, and it is no random draw. Some tests of the compounds listed are not included; inactive here does not mean inactive elsewhere. Active and inactive are the calls of the source.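 The calls were made as follows: active = mean inhibition of at least 75% with every replicate also reaching 75%; inconclusive = mean inhibition at least 75% but some replicate below; inactive = mean inhibition below 75%.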

The assay in a line: Shn3 3'UTR reporter decrease in osteoblasts – cell-based, Clone20 osteoblasts, firefly luciferase, set 2, Schnurri-3 inhibitor project, primary screen (AID 588674).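 Also: 0% = median of neutral control wells and 100% = pilot-screen positive control compound.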 The following applies: Clone20 osteoblast Shn3 3'UTR firefly luciferase, 24 h; at 12.5 µM; active compounds read high.
In general, inhibition refers to the relative decrease from the control value, in per cent. Regarding `Cc1ccccc1C(=O)NCC1(N2CCCCC2)CCCCC1`, the inhibition was inactive: 9.44%. On to `CN(C)C1CCCC1OC(=O)C(O)(c1ccccc1)c1ccccc1` (stereo unspecified), for which the inhibition is inactive: 17.9%. To `CN(C)c1ccc(C(=O)NCC2(N(C)C)CCCCC2)cc1` belongs inactive: -15.5%; to `Cc1cc(C(=O)NCC2(N3CCCCC3)CCCCC2)ccc1[N+](=O)[O-]`, inactive: -9.22%; to `CCN1CCCC(OC(=O)C2(O)c3ccccc3C=Cc3ccccc32)C1` (stereo unspecified), inactive: -8.22%. To `O=C(NCC1(N2CCCCC2)CCCCC1)c1cccc(Br)c1` belongs inactive: -2.62%; to `COc1ccc(C(=O)NCC2(N(C)C)CCCCC2)cc1`, inactive: -4.94%.

Take `C=CCN1CCN(CCOC(=O)C(O)(c2ccccc2)c2ccccc2)CC1`: the inhibition is inactive: -1.64%. To `O=C(NCC1(N2CCCCC2)CCCCC1)c1cc(F)c(F)cc1Cl` belongs inactive: 3.28%; to `CN1[C@@H]2CC[C@H]1CC(OC(=O)C(O)(c1ccccc1)c1ccccc1)C2` (stereo partly specified), inactive: -5.45%.

For the molecule `O=C(NCC1(N2CCCCC2)CCCCC1)c1cc([N+](=O)[O-])ccc1Cl`, the inhibition is inactive: -3.74%. To `Cc1ccc(C(=O)NCC2(N3CCCCC3)CCCCC2)cc1` belongs inactive: -8.77%; to `CC(C)N1C(=O)CC2(CCN(CCOC(=O)C(O)(c3ccccc3)c3ccccc3)CC2)C1=O`, inactive: 1.35%. On to `CCN(CC)CC(C)C(C)OC(=O)C(O)(c1ccccc1)c1ccccc1` (stereo unspecified), for which the inhibition was inactive: 3.22%. `COc1cc(SC)ccc1C(=O)NCC1(N(C)C)CCCCC1`: the inhibition was inactive: 7.16%. To `O=C(OC1CN2CCC1CC2)C(CO)(c1ccccc1)c1ccccc1` (stereo unspecified) belongs inactive: 16.9%; to `CN(C)c1cccc(C(=O)NCC2(N(C)C)CCCCC2)c1`, inactive: -15.1%. To `CC(C)Oc1ccc(C(=O)NCC2(N(C)C)CCCCC2)cc1` belongs inactive: -15.3%; to `O=C(OCCN1CCCC1)C(O)(c1ccccc1)c1ccccc1`, inactive: 9.75%; to `COc1ccc(Br)c(C(=O)NCC2(N3CCCCC3)CCCCC2)c1`, inactive: 4.45%. To `C=C(C)C#CC(O)(C(=O)OC1CCN(C)CC1)c1ccccc1` (stereo unspecified) belongs inactive: -7.83%; to `COc1cc(C(=O)NCC2(N(C)C)CCCCC2)c([N+](=O)[O-])cc1OC`, inactive: -9.36%; to `CN(C)C1(CNC(=O)c2ccc(Br)cc2)CCCCC1`, inactive: 7.79%. For `O=C(NCC1(N2CCCCC2)CCCCC1)c1cccc(Cl)c1`, the inhibition is inactive: -1.36%. To `COc1cccc(C(=O)NCC2(N3CCCCC3)CCCCC2)c1` belongs inactive: 9.57%.

Turning to `COc1ccc(Cl)cc1C(=O)NCC1(N(C)C)CCCCC1`, the inhibition is inactive: -0.887%.
